Experimental data: PMC6530635, “A Novel Single-Site Mutation in the Catalytic Domain of Protoporphyrinogen Oxidase IX (PPO) Confers Resistance to PPO-Inhibiting Herbicides” (Frontiers in Plant Science, 2019)
Read-outs that look alike come from different tables or passages of the source.

What was measured:
[1] = tested on: Amaranthus palmeri (Palmer amaranth) populations MIS-D, R39P, R43P and SS; assay type: in vivo
[2] = tested on: Amaranthus palmeri R39P population; assay type: in vivo; details: R39P F1 population; 2X recommended dose; 21 DAT; 25 seedlings
[3] = tested on: Amaranthus palmeri MIS-D population; set-up: method as in Salas-Perez et al., 2017; details: 1X dose, ref Salas-Perez et al., 2017, cited from earlier work

SMILES	R/S (resistance level, ED50 relative to SS) ([1]; MIS-D vs SS) [fold]	Kill of resistant populations at 2X dose ([1]; MIS-D, R39P, R43P, 2X dose (528 g ai ha^-1))	R/S (resistance level, ED50 relative to SS) ([1]; R39P vs SS) [fold]	R/S (resistance level, ED50 relative to SS) ([1]; R43P vs SS) [fold]	Frequency of resistant plants [2] [%]	Frequency of resistant plants ([3]; MIS-D field population) [%]	Mortality ([3]; MIS-D) [%]
CS(=O)(=O)NC(=O)c1cc(Oc2ccc(C(F)(F)F)cc2Cl)ccc1[N+](=O)[O-] [Fomesafen]	11	None of the resistant populations were killed 100%	12	16	12	–	–
CC(C)N(C)S(=O)(=O)NC(=O)c1cc(-n2c(=O)cc(C(F)(F)F)n(C)c2=O)c(F)cc1Cl [Saflufenacil]	–	–	–	–	12	0	> 90
